Hits are enriched below; roughly 16% of the tested compounds scored in any of these assays.
TDP1 cell noCPT: qHTS for Inhibitors of human tyrosyl-DNA phosphodiesterase 1 (TDP1): qHTS in cells in absence of CPT; Potency, µM (highest dose often 46.2 µM), for inactives: at the top dose activity change, negative = growth inhibition, actives largely listed as inhibitors; hit rate 15% among 420,000; DT40 Tdp1-/- hTDP1 cells, no CPT, ATP luminescence, 48 h; note: potency is the fitted concentration of half-maximal effect; % is set by controls: 0 for no effect and ±100 for the full control effect; nearly all actives have a fitted effect of over 55% in size
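Growth kinetics read by CellTiter-Glo luminescence after ≥48 hr at 37 °C. Cells: DT40 Tdp1-/- stably carrying human TDP1, 400 per well, compound exposure in the absence of CPT (DMSO vehicle).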
TDP1 cell CPT: growth inhibition of DT40 Tdp1-/-;hTDP1 cells with camptothecin (screen for TDP1 inhibitors) | Potency, µM (titrated, usually from 46.2 µM), inactives show top-dose activity change, negative = growth inhibition, usual class: inhibitors | chicken DT40 Tdp1-/-;hTDP1 cells + 20 nM CPT, ATP luminescence, 48 h | hit rate 12% among 420,000; note: potency is the fitted concentration of half-maximal effect; % is set by controls: 0 for no effect and ±100 for the full control effect; nearly all actives have a fitted effect of over 55% in size
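Chicken DT40 Tdp1-/- cells complemented with human TDP1, 400 cells/well, exposed to compounds plus 20 nM camptothecin for at least 48 h at 37 C; viability read as ATP content by CellTiter-Glo luminescence.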
uPA generation: inhibitors of cell surface uPA generation; cell surface uPA generation assay, qHTS; Potency, µM (series often up to 38.3 µM), inactives show at the highest dose activity change, negative = inhibition, usual class: inhibitors; hit rate 0.31% among 330,000; active = well fitted inhibition curve with a large enough effect; inconclusive = small, poorly fitted or top-dose-only effect; inactive = no such curve, though single readings can be large or run the other way; tested in mouse RAW 264.7 cells; note: potency is the fitted concentration of half-maximal effect; % is set by controls: 0 for no effect and ±100 for the full control effect; nearly all actives have a fitted effect of over 55% in size
miR-21 reporter: raises the signal of a miR-21 reporter | HeLa miR-21 FLuc reporter, luciferase, 48 h | Potency, µM (doses to about 38.3 µM), for the others: at the highest dose reporter change, positive = more light | 340,000 tested, under 10 active | AID 2288; active = well fitted rising curve with a large enough effect; inconclusive = small, poorly fitted or top-dose-only effect; inactive = no such curve, though single readings can be large or run the other way;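 also: % of control where 0% means no effect; miR-21 action dims this reporter so a rising signal means less miR-21 action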
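Using DMEM plus 10% FBS, HeLa miR-21-FLuc cells are incubated with test compounds (final up to about 40uM) for 48 hours; firefly luciferase signal is then imaged following reagent-mediated lysis.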
TDP1 block: blocks human tyrosyl-DNA phosphodiesterase 1 | Q9NUW8 | recombinant TDP1, AlphaScreen DNA substrate cleavage | Potency, µM (series often up to 130 µM), inactives show at the top dose activity change, negative = inhibition, most hits filed as inhibitors | hit rate 0.28% among 350,000 | AID 485290; note: potency is the fitted concentration of half-maximal effect; % is set by controls: 0 for no effect and ±100 for the full control effect; nearly all actives have a fitted effect of over 40% in size
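Tdp1 1 nM final; 15 min RT w/ cpd; substrate 15 nM, 5 min; beads 10 ug/ml, 10 min; AlphaScreen read. Neg ctrl: no enzyme.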
Active calls of the source: *; u = inconclusive; x = not tested or not shown; [ ] = dose if it differs, or a comment. Unless noted, calls come from the whole dose curve; as a rule, active = well fitted curve in the direction sought with a large enough effect; inconclusive = small, poorly fitted or top-dose-only effect, or another doubt; inactive = no such curve, though single readings can be large; an effect the other way counts as inactive or inconclusive.

| cpd | structure | TDP1 cell noCPT | TDP1 cell CPT | uPA generation |
| --- | --- | --- | --- | --- |
| 1 | CCC(=O)Nc1ccc(C(=O)OCC(=O)c2ccc(C)c([N+](=O)[O-])c2)cc1 | -12% | -4% | -2% |
| 2 | CC(C)=C1C(=O)C(c2ccccc2)=C2CN3C(=O)N(CCc4ccccc4)C(=O)[C@]3(Cc3ccc(C(F)(F)F)cc3)[C@H]21 | x | x | x |
| 3 | CCOC(=O)C1(Cc2ccc(OC)cc2)CCN(C(=O)C2=CCCC2)CC1 | 18µM* | u | 1% |
| 4 | CCOC(=O)C1(Cc2ccc(OC)cc2)CCN(C(=O)c2cc(C)on2)CC1 | u | -26% | 0% |
| 5 | CCOC(=O)C1(Cc2ccc(OC)cc2)CCN(C(=O)c2sc(C)nc2C)CC1 | 23µM* | 26µM* | 7% |
| 6 | CCOC(=O)C1(Cc2ccc(Cl)cc2)CCN(C(=O)c2sc(C)nc2C)CC1 | 9.2µM* | 12µM* | u |
| 7 | CCOC(=O)C1(Cc2ccc(Cl)cc2)CCN(C(=O)CCc2cnccn2)CC1 | -29% | -13% | -1% |
| 8 | CCOC(=O)C1(Cc2ccc(Cl)cc2)CCN(C(=O)CCc2ccncc2)CC1 | 13µM* | -18% | -3% |

| cpd | miR-21 reporter | TDP1 block |
| --- | --- | --- |
| 1 | -7% | 6% |
| 2 | x | 12% |
| 3 | -7% | -1% |
| 4 | -15% | 2% |
| 5 | 1% | 0% |
| 6 | 25% | 7% |
| 7 | 0% | 0% |
| 8 | 4% | 3% |

Next part.
| cpd | structure | TDP1 cell noCPT | TDP1 cell CPT | uPA generation |
| --- | --- | --- | --- | --- |
| 9 | COc1cc2c(=O)c(S(=O)(=O)c3ccccc3)cn(CC(=O)Nc3ccccc3C)c2cc1OC | 0% | -5% | x |
| 10 | O=C(c1ccccc1)N1CCN(c2ccc(NCc3ccc4c(c3)OCO4)cc2)CC1 | 18µM* | 15µM* | u |
| 11 | O=C(Nc1ccc(N2CCN(C(=O)c3ccc(Cl)cc3)CC2)cc1)c1ccc2c(c1)OCCO2 | 23µM* | 13µM* | x |
| 12 | CC(C)(C)C(=O)N1CCN(c2ccc(NC(=O)c3ccc4c(c3)OCCO4)cc2)CC1 | u | u | -3% |
| 13 | CC(=O)N1CCN(c2ccc(NC(=O)c3ccc4c(c3)OCCO4)cc2)CC1 | -18% | -21% | -12% |
| 14 | O=C(CSc1ccc(Cl)cc1)Nc1ccc(N2CCN(C(=O)c3ccc(Cl)cc3)CC2)cc1 | 15µM* | 18µM* | x |
| 15 | O=C(Nc1ccc(N2CCN(C(=O)c3ccccc3)CC2)cc1)c1ccc2c(c1)OCCO2 | u | 21µM* | u |
| 16 | CC(=O)N1CCN(c2ccc(NCc3ccc4c(c3)OCO4)cc2)CC1 | -15% | -27% | -4% |

| cpd | miR-21 reporter | TDP1 block |
| --- | --- | --- |
| 9 | -4% | 1% |
| 10 | 24% | -10% |
| 11 | 17% | 5% |
| 12 | u | 16% |
| 13 | -10% | 9% |
| 14 | 0% | -6% |
| 15 | -18% | 0% |
| 16 | -1% | 13% |

Other results follow.
| cpd | structure | TDP1 cell noCPT | TDP1 cell CPT | uPA generation |
| --- | --- | --- | --- | --- |
| 17 | COCCNC(=O)C(c1ccc(C)cc1)N(C(=O)CCC(=O)Nc1ccccn1)C1CCCCC1 (stereo not given) | -3% | 5% | 0% |
| 18 | CCn1c(-c2ccccc2F)nc2cc(C(=O)NC(c3ccccn3)C(F)(F)F)cc(NC(C)=O)c21 (stereo not given) | -13% | 7%[9.04 µM] | x |
| 19 | CC1=NN(C(=O)Cc2ccccc2)C(O)(c2ccccc2)C1 (stereo not given) | 4.1µM* | 2.9µM* | 1% |
| 20 | CC1=NN(C(=O)Cc2ccc([N+](=O)[O-])cc2)C(O)(c2ccccc2)C1 (stereo not given) | 5.2µM* | 4.1µM* | 1% |
| 21 | CCOC(=O)N1N=C(C)CC1(O)c1ccccc1 (stereo not given) | -29% | -25% | 1% |
| 22 | CC1=NN(C(=O)Cc2ccc([N+](=O)[O-])cc2)C(O)(c2cccnc2)C1 (stereo not given) | u | 18µM* | x |
| 23 | COc1ccc(CC(=O)N2N=C(C)CC2(O)c2cccnc2)cc1OC (stereo not given) | 0% | -8% | 14% |
| 24 | Nn1c(SCCOc2ccccc2)nnc1-c1cccnc1 | -14% | -2% | 5% |

| cpd | miR-21 reporter | TDP1 block |
| --- | --- | --- |
| 17 | -1% | x |
| 18 | x | x |
| 19 | -13% | 5% |
| 20 | -1% | 2% |
| 21 | -6% | -3% |
| 22 | -3% | 8% |
| 23 | -2% | 0% |
| 24 | -17% | 5% |

More results follow:
| cpd | structure | TDP1 cell noCPT | TDP1 cell CPT | uPA generation |
| --- | --- | --- | --- | --- |
| 25 | O=C(O)c1cc(O)c2c(c1)[C@@H]([C@H]1c3cc(C(=O)O)cc(O)c3C(=O)c3c(O[C@@H]4O[C@H](CO)[C@@H](O)[C@H](O)[C@H]4O)cccc31)c1cccc(O[C@@H]3O[C@H](CO)[C@@H](O)[C@H](O)[C@H]3O)c1C2=O | u | 6.5µM* | -7% |
| 26 | CC(C)S(=O)(=O)c1csc(NC(=O)Nc2ccc(Cl)cc2)c1 | 12µM* | 7.3µM* | 3% |
| 27 | CCOC(=O)c1ccc(Nc2nc(C)cc(C)c2C#N)cc1 | -22% | -6% | 13% |
| 28 | COc1ccccc1-c1nnc2sc(-c3cc4ccccc4o3)nn12 | 1µM* | 1.2µM* | -10% |
| 29 | COc1ccccc1-c1nnc2sc(-c3ccc(N(C)C)cc3)nn12 | 0.082µM* | 0.0073µM* | -5% |
| 30 | COc1ccccc1-c1nnc2sc(-c3cnccn3)nn12 | -25% | -22% | 9% |
| 31 | Cc1cc(Sc2nnc(N)s2)c2ccccc2n1 | 2.9µM* | 1.8µM* | 3.2µM* |
| 32 | Cc1cc(C)c2ccccc2n1 | 1% | -2% | x |

| cpd | miR-21 reporter | TDP1 block |
| --- | --- | --- |
| 25 | x | x |
| 26 | 20% | 0% |
| 27 | 0% | -6% |
| 28 | 18% | 4% |
| 29 | 20% | 0% |
| 30 | -2% | -5% |
| 31 | u | -4% |
| 32 | x | x |

Next part:
| cpd | structure | TDP1 cell noCPT | TDP1 cell CPT | uPA generation |
| --- | --- | --- | --- | --- |
| 33 | Cc1cc(Sc2nnc(/N=C/N(C)C)s2)c2ccccc2n1 | 7.3µM* | 5.8µM* | u |
| 34 | O=C(CC(=O)c1ccccc1)Nc1cccnc1Cl | -23% | 16% | -10% |
| 35 | Cn1c(CN2CCN(c3ccccc3NS(C)(=O)=O)CC2)nc2ccccc21 | u | u | -11% |
| 36 | CCN(C(=O)CN1CCCCC1)c1c(N)n(Cc2ccccc2)c(=O)[nH]c1=O | -14% | 5% | 3% |
| 37 | CCOc1ccccc1CNC(=O)C1CCN(C2=NS(=O)(=O)C(c3ccc(C)c(C)c3)=C2C)CC1 | -16% | 3% | x |
| 38 | CC1=C(c2ccc(C)c(C)c2)S(=O)(=O)N=C1N1CCC(C(=O)NCCc2ccc(Cl)cc2)CC1 | 7.3µM* | 13µM* | x |
| 39 | CCOc1ccc(CNC(=O)C2CCN(C3=NS(=O)(=O)C(c4ccc(C)cc4)=C3CC)CC2)cc1 | u | 18µM* | x |
| 40 | CC1=C(c2ccc(F)cc2)S(=O)(=O)N=C1N1CCC(C(=O)NCCc2cccc(C)c2)CC1 | u | u | x |

| cpd | miR-21 reporter | TDP1 block |
| --- | --- | --- |
| 33 | u | 1% |
| 34 | -56% | 7% |
| 35 | 5% | x |
| 36 | x | 1% |
| 37 | 0% | 6% |
| 38 | u | 1% |
| 39 | 26% | 4% |
| 40 | 1% | 6% |

Additional compounds follow:
| cpd | structure | TDP1 cell noCPT | TDP1 cell CPT | uPA generation |
| --- | --- | --- | --- | --- |
| 41 | COc1ccccc1CNC(=O)C1CCN(C2=NS(=O)(=O)C(c3ccc(C)c(C)c3)=C2C)CC1 | 18µM* | 16µM* | x |
| 42 | CCC1=C(c2ccc(C)cc2)S(=O)(=O)N=C1N1CCC(C(=O)NCc2ccccc2Cl)CC1 | u | u | x |
| 43 | CC(=O)c1cnc(Nc2nc(C)c3ccccc3n2)nc1C | x | x | x |
| 44 | Cc1cc(-c2ccccc2)c2ccc(NC(=O)C(C)(C)C)nc2n1 | 15µM* | 21µM* | 20% |
| 45 | O=C(CCSc1ccc(Cl)cc1)NC1CCCC1 | -18% | -2% | 2% |

| cpd | miR-21 reporter | TDP1 block |
| --- | --- | --- |
| 41 | 12% | 1% |
| 42 | 17% | 2% |
| 43 | -5% | 1% |
| 44 | 5% | x |
| 45 | -6% | x |

Screening data (PubChem)
